Experimental data published in patent US9403797B2, “5-(pyridin-2-yl-amino)-pyrazine-2-carbonitrile compounds and their therapeutic use” (Cancer Research Technology Limited, priority 2011, dated 2016).

Amino acid sequences for entries named in this document (tags omitted). A change or cut given only in a name is not applied to a line headed by its entry.
UniProt O14757: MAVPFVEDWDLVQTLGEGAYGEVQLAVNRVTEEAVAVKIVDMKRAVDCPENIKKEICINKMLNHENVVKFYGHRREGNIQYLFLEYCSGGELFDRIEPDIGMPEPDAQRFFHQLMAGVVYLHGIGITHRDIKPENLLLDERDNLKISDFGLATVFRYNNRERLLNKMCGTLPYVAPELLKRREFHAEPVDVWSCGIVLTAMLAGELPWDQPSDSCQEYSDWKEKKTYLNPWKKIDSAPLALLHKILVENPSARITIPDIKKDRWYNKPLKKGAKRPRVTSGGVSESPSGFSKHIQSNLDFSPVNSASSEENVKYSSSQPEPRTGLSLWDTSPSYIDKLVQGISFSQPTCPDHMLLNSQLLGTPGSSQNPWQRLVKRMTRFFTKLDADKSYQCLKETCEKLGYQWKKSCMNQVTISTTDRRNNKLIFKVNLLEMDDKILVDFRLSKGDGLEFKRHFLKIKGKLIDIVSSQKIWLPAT

Molecular target: CHK1 (Homo sapiens (Human), UniProt O14757)
Experiment: Inhibitor potency vs. CHK1 (Assay 1A DELFIA or Assay 1B Caliper format)
Type: biochemical
Method: Assay 1A: Determination of Inhibitor Potency vs. CHK1 in DELFIA Assay Format
CHK1 kinase function was measured in a DELFIA® assay in order to monitor phosphorylation of a CDC25C peptide using a specific phospho antibody. […] The reaction mixture was incubated for 30 minutes at room temperature and then stopped by the addition of buffer (125 μL) containing 40 mM EDTA, 0.05% Tween 20, 0.1% BSA in TBS (10× concentrate, Sigma). An aliquot (100 μL) of the stopped reaction mixture was transferred to a black neutravidin-coated plate (Perbio) and incubated for 1 hour on a shaker (Titertek, Flow Laboratories) at room temperature. […] The plates were washed a further four times with wash buffer before the addition of enhancement solution (100 μL/well, PerkinElmer Life Sciences).
Assay 1B: Determination of Inhibitor Potency Vs. CHK1 in Caliper Assay Format
CHK1 kinase activity was measured in a microfluidic assay that monitors the separation of a phosphorylated product from its substrate. […] For each test compound a 50 μM stock concentration in 100% DMSO was used. […] The plate was sealed and centrifuged (1 minutes, 1000 rpm) before incubation for one hour at room temperature. The reaction was stopped by the addition of separation buffer (90 μL). […] IC50 values were calculated in GraphPad Prism5 using a non linear regression fit of the log (inhibitor) vs. response with variable slope equation.

How did the IC50 turn out when `CNc1cc(Nc2cnc(C#N)c(O[C@@H]3CCNC3)n2)ncc1C(=O)OC` [PAPC-B-10, (R)-Methyl 6-((5-cyano-6-(pyrrolidin-3-yloxy)pyrazin-2-yl)amino)-4-(methylamino)nicotinate] was run?
Its IC50 is less than 20 nM.
